Data published in publication PMC2866327, “Designed Inhibitors of Insulin-Degrading Enzyme Regulate the Catabolism and Activity of Insulin” (PLoS ONE, 2010).

Protein sequences, listed by entry. Tags and fused reporters are not part of them.
UniProt P14735, whole entry: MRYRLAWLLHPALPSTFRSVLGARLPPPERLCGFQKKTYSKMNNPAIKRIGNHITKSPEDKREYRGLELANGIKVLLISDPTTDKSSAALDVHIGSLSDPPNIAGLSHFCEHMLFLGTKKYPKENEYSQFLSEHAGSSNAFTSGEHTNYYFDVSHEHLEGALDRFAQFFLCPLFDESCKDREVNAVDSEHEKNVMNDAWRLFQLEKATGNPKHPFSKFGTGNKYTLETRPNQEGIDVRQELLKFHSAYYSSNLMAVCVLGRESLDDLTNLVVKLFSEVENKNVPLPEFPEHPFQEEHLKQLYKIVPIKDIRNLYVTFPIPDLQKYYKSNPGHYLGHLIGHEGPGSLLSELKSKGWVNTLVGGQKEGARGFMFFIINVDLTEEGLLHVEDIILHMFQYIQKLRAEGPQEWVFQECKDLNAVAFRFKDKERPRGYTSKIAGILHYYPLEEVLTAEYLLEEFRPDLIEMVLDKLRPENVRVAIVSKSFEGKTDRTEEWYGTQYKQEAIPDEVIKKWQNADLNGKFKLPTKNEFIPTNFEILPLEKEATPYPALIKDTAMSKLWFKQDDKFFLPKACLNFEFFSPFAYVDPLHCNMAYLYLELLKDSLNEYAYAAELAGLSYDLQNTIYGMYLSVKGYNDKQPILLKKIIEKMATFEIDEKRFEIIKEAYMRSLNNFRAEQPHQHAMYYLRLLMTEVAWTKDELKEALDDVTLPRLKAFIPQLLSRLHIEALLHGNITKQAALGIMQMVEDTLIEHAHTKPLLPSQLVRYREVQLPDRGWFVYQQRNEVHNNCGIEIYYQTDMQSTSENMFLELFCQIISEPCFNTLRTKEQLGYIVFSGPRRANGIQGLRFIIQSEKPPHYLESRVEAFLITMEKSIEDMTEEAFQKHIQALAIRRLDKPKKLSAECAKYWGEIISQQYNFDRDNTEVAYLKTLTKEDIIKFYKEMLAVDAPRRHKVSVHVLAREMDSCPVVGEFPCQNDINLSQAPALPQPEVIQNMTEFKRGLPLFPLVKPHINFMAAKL

Legend:
[1] = system: other zinc-metalloproteases (NEP, ECE1, ACE1, MMP1)
IDE = IDE (Homo sapiens, UniProt P14735); assay: In vitro IDE enzymatic assay (hydrolysis of FRET1, SP1, FAβB, 125I-insulin or insulin by HTRF); assay type: biochemical; design: made in house; host or cells: bacteria

Structure (SMILES): N=C(N)NCCC[C@H](NC(=O)[C@@H](CC(=O)NO)Cc1ccc2ccccc2c1)C(=O)N[C@@H](Cc1c[nH]c2ccccc12)C(=O)N[C@@H](CCC(=O)O)C(N)=O [Ii1]
- selectivity for IDE vis-à-vis other zinc-metalloproteases [1]: ~4 orders of magnitude
- Ki with longer substrates (insulin, Aβ) relative to shorter substrates (IDE): ~10 fold
